Read-outs that look alike come from different tables or passages of the source.
System: grasshopper BBB (locusta migratoria brain in its cuticle shell)
Details: 5 min
Protocol: 1. […] The insects may be obtained from local suppliers or bred in house. The grasshoppers were reared under crowded conditions at 28° C. and a 12:12 dark:light photocycle and fed fresh grass and bran. Before experiments the grasshoppers were fed ecologically cultivated wheat for two weeks. Animals used are adult males (in some experiments females) between two to four weeks after adult emergence. A cut is made through the frontal part of the locust head comprising the most frontal parts including the antennae, the compound eyes, the brain and all neural connections between the brain and the antennae and the eyes. This preparation in its cuticle shell is placed in a well of a microtitre plate containing the test solution. After various times of exposure the preparation is washed in saline and the brain is dissected under microscope with fine forceps. The neural lamella surrounding the brain is removed in saline and the brain is then […] in saline, centrifuged and the supernatant frozen until analyses. Drug concentration is analysed by HPLC, LC/MSMS or other methods.
(§1) A cut was made through the frontal part of the head of adult female locusta migratoria. Each brain in its cuticle shell was placed in a 0.12 mg/ml mianserin solution for 5 minutes. The brain was prepared in saline and removed from the cuticle shell and three brains were placed in each test tube containing 100 ul distilled H2O. 200 ul ACN was added to each tube and the tubes were placed in a sonicator and the brains were disintegrated by approximately 5 seconds of sonication. The samples containing the disintegrated brains were centrifuged for 5 minutes (10000 g at 4° C.).
as §1, with “shell. The brains were washed in Saline. After wash” for “shell and”, “sonication.” for “sonication. The samples containing the disintegrated brains were centrifuged for 5 minutes (10000 g at 4° C.).”
A cut was made through the frontal part of the head of adult female locusta migratoria. Each brain in its cuticle shell was placed in a 0.12 mg/ml mianserin solution for 5 minutes. The brain was prepared in saline and removed from the cuticle shell. To stain the neural lamella Evans Blue was added and the neural lamella was removed. Three brains were placed in each test tube containing 100 ul distilled H2O. 200 ul ACN was added to each tube and the tubes were placed in a sonicator and the brains were disintegrated by approximately 5 seconds of sonication.
A cut was made through the frontal part of the head of the adult locusta migratoria. […]

## C=C[C@H]1C[N@@]2CC[C@H]1C[C@@H]2[C@@H](O)c1ccnc2ccc(OC)cc12 [quinidine]
0.001 mg/ml
  average concentration in brain supernatant measured by LCMS: 3 ng/mL
0.01 mg/ml
  average concentration in brain supernatant measured by LCMS: 11 ng/mL
0.1 mg/ml
  average concentration in brain supernatant measured by LCMS: 52 ng/mL
1 mg/ml
  average concentration in brain supernatant measured by LCMS: 684 ng/mL

Source: patent US9097706B2, “Insect-based ex vivo model for testing blood-brain barrier penetration and method for exposing insect brain to chemical compounds” (ENTOMOPHARM APS, priority 2009, dated 2015)
